Measurements from PubChem BioAssay AID463165 (Johns Hopkins Ion Channel Center, 2010).
This is a selection; strong and weak results do not stand in their true shares. Active and inactive are the calls of the source.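 How the source made its calls: active means B-score, a plate-corrected calcium signal, over three deviations above library mean, with baseline fluorescence within five deviations of library mean; inactive means the rest.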

The chains behind the UniProt entries cited, without tags or fusion partners.
UniProt P49798, whole entry: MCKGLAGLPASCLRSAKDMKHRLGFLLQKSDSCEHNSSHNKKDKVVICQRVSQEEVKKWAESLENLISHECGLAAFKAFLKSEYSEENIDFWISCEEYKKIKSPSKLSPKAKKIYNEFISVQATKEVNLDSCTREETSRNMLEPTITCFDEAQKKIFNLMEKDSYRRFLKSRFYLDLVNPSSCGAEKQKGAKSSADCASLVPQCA

molecular target: Regulator of G-protein signaling 4 (Homo sapiens) (UniProt P49798); assay: blockers of RGS4 function in M3R calcium signaling – cell-based, HEK293 M3R inducible RGS4, calcium flux, primary screen (AID 463165); conditions: Fluo-4 calcium flux, at 10 µM, triggered by carbachol at its EC20;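 further: RGS4 expression induced by doxycycline in cells with stable M3 receptor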

Row | Compound | outcome
1 | Fc1ccccc1NC1CCN(Cc2ccccc2)CC1 | inactive
2 | Cc1ccc(C(=O)NCC2(N3CCCCC3)CCCCC2)o1 | inactive
3 | COc1cc(OC)cc(C(=O)NCC2(N3CCCCC3)CCCCC2)c1 | inactive
4 | CN(C)c1ccc(C(=O)NCC2(N3CCCCC3)CCCCC2)cc1 | inactive
5 | CCN1CCC(Nc2cccc(F)c2)CC1 | inactive
6 | O=C(O)C1(Nc2ccccc2)CCN(Cc2ccccc2)CC1 | inactive
7 | CC(C)(C)OC(=O)N1CCC(Nc2ccccc2)CC1 | inactive
8 | CCCOc1ccc(C(=O)NCC2(N(C)C)CCCCC2)cc1 | inactive
9 | CN1CCC(Nc2ccc(F)c(Cl)c2)CC1 | inactive
10 | CCOc1ncccc1C(=O)NCC1(N2CCOCC2)CCCCC1 | inactive
11 | CN1CCC(Nc2ccc(Cl)cc2)CC1 | inactive
12 | CCCOc1ccc(C)cc1CN(CCCl)CCCl | inactive
13 | COc1cccc(C(=O)N(c2cc(C)cc(C)c2)C2CCN(C(=O)OC(C)(C)C)CC2)c1 | inactive
14 | COc1cc(OC)cc(C(=O)NCC2(N3CCOCC3)CCCCC2)c1 | inactive
15 | CCC(CO)(C(=O)OC1CN2CCC1CC2)c1ccccc1 (centres undefined) | inactive
16 | COc1ccc(C(=O)NCC2(N3CCOCC3)CCCCC2)cc1OC | inactive
17 | O=C(OC1CN2CCC1CC2)C1c2ccccc2C=Cc2ccccc21 (centres undefined) | inactive
18 | CCc1cc(C(=O)NCC2(N3CCCCC3)CCCCC2)sc1C | inactive
19 | CCOC(=O)N1CCC(Nc2ccc(C)cc2)CC1 | inactive
20 | N/C(=N\O)c1c(N)no[n+]1[O-] | inactive

Row | Compound | outcome
21 | N#Cc1ccc(C(=O)NCC2(N3CCCCC3)CCCCC2)cc1 | inactive
22 | CC(C)(C)OC(=O)N1CCC(N(C(=O)c2ccccc2)c2ccc(Cl)cc2)CC1 | inactive
23 | CN(C)C1(CNC(=O)c2cccc(C#N)c2)CCCCC1 | inactive
24 | CCCN1CCC(Nc2cc(OC)cc(OC)c2)CC1 | inactive
25 | c1ccc(CN2CCC(Nc3ccccc3)CC2)cc1 | inactive
26 | N#CC1(Nc2ccccc2)CCN(CCc2ccccc2)CC1 | inactive
27 | CCN1CCC(Nc2ccc(Cl)cc2)CC1 | inactive
28 | O=C(NCC1(N2CCCCC2)CCCCC1)c1cccc([N+](=O)[O-])c1 | inactive
29 | O=C(NCC1(N2CCCCC2)CCCCC1)c1ccc(OC(F)F)cc1 | inactive
30 | O=C(NCC1(N2CCOCC2)CCCCC1)c1cc(=O)[nH]c2ccccc12 | inactive
31 | COc1cc(C(=O)NCC2(N3CCCCC3)CCCCC2)ccc1OC(F)F | inactive
32 | COc1ccc(NC2CCN(C(=O)OC(C)(C)C)CC2)cc1 | inactive
33 | CN1CCN(CCOC(=O)C(O)(c2ccccc2)c2ccccc2)CC1 | inactive
34 | O=C(NCC1(N2CCCCC2)CCCCC1)c1cccc(C(F)(F)F)c1 | inactive
35 | COc1cc(OC)c(C(=O)NCC2(N(C)C)CCCCC2)cc1OC | inactive
36 | CC(C)c1ccc(NC2CCN(C(=O)OC(C)(C)C)CC2)cc1 | inactive
37 | CN(C)c1cccc(C(=O)NCC2(N3CCCCC3)CCCCC2)c1 | inactive
38 | COc1ccc(CN(CCCl)CCCl)cc1Cl | inactive
39 | CCCOc1ccc(C(=O)NCC2(N(C)C)CCCCC2)cc1OC | inactive
40 | CN1CCC(Nc2cccc(F)c2)CC1 | inactive

Row | Compound | outcome
41 | CSc1ccccc1C(=O)NCC1(N2CCCCC2)CCCCC1 | inactive
42 | COc1ccc(C(=O)NCC2(N3CCCCC3)CCCCC2)c(OC)c1OC | inactive
43 | CC(C)(C)OC(=O)N1CCC(N(C(=O)c2ccccc2)c2ccc(F)cc2)CC1 | inactive
44 | COc1ccc(C(=O)NCC2(N3CCCCC3)CCCCC2)cc1 | inactive
45 | O=C(NCC1(N2CCCCC2)CCCCC1)c1cccs1 | inactive
46 | O=C(NCC1(N2CCCCC2)CCCCC1)c1ccc(=O)[nH]c1 | inactive
47 | O=C(OC1CN2CCC1CC2)C1c2ccccc2Oc2ccccc21 (centres undefined) | inactive
48 | N#CC1(Nc2ccccc2)CCN(Cc2ccccc2)CC1 | inactive
49 | CCOC(=O)N1CCC(Nc2ccc(OC)cc2)CC1 | inactive
50 | Cc1cc(C)cc(N(C(=O)c2ccccc2)C2CCN(C(=O)OC(C)(C)C)CC2)c1 | inactive
51 | O=C(NCC1(N2CCCCC2)CCCCC1)c1ccc(Cl)nc1 | inactive
52 | O=C(NCC1(N2CCOCC2)CCCCC1)c1cc2ccccc2o1 | inactive
53 | CCOC(=O)N1CCC(Nc2ccc(F)cc2)CC1 | inactive
54 | COc1ccc(NC2CCN(CCc3ccccc3)CC2)c(OC)c1 | inactive
55 | O=C(NCC1(N2CCCCC2)CCCCC1)c1ccc(F)cc1 | inactive
56 | CCOc1ccc(C)cc1CN(CCCl)CCCl | inactive
57 | Cc1ccc(OCC(C)C)c(CN(CCCl)CCCl)c1 | inactive
58 | COc1cc(C(=O)NCC2(N(C)C)CCCCC2)ccc1OC(F)F | inactive
59 | CCOC(=O)N1CCC(Nc2cccc(C)c2)CC1 | inactive
